Drawing on ChEMBL document CHEMBL4371087, “Development of novel liver X receptor modulators based on a 1,2,4-triazole scaffold” (Bioorg Med Chem Lett, 2019), this text covers Emax and Ratio EC50 for 4 molecules.

The chains behind the UniProt entries cited, without tags or fusion partners.
UniProt Q13133, whole entry: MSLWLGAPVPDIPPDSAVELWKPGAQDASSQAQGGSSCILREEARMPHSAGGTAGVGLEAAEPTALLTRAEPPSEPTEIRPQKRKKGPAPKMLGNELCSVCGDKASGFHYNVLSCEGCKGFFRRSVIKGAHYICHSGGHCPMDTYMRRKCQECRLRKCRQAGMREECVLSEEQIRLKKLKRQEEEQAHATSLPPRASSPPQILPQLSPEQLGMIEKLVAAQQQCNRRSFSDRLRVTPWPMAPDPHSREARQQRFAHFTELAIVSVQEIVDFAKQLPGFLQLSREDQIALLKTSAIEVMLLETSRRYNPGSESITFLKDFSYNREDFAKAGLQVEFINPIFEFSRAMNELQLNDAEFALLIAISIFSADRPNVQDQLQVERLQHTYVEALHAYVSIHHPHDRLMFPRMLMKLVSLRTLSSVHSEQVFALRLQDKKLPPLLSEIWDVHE
UniProt P55055, whole entry: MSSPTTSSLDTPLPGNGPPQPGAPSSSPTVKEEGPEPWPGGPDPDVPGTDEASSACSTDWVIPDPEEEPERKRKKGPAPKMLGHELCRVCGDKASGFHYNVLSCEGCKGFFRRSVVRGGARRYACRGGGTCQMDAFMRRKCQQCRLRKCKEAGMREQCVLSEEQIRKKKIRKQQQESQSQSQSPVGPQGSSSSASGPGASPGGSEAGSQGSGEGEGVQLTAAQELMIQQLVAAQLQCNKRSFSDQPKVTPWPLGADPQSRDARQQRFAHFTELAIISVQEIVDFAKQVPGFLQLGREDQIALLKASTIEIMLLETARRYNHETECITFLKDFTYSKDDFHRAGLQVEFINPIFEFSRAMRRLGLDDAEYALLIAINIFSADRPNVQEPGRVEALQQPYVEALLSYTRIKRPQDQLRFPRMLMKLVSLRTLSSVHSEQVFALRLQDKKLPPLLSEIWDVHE

What all share (format): cell-based
Test [1] deals with Oxysterols receptor LXR-alpha (Homo sapiens, UniProt Q13133). The test can be described thus: Agonist activity at full length human LXRalpha expressed in HEK293 cells harboring LXRE-Luc promoter at 10 uM by luciferase reporter gene assay relative to T0901317. On the technique in general: In a reporter assay the amount or activity of a reporter protein is the signal.
Test [2] concerns the target Oxysterols receptor LXR-beta (Homo sapiens, UniProt P55055). The test can be described thus: Agonist activity at full length human LXRbeta expressed in HEK293 cells harboring LXRE-Luc promoter at 10 uM by luciferase reporter gene assay relative to T0901317.
For the next test, the species on record is Homo sapiens. The test can be described thus: Selectivity ratio of EC50 for full length human LXRalpha expressed in HEK293 cells to EC50 for full length human LXRbeta expressed in HEK293 cells.

In general, Emax refers to the maximal effect, on the per cent scale that the assay sets. `CC(=O)n1nc(-c2ccccc2)nc1-c1ccccc1`: the Emax in test [1] was found to be 56%; in test [2], 63%. Besides, in the test listed under Homo sapiens, the Ratio EC50 came out at 1.71.
On to `CC(=O)n1nc(-c2ccc(Br)cc2)nc1-c1ccccc1`, for which the values for the Emax in test [1] and in test [2] were 58% and 78%, respectively. Besides, the Ratio EC50 in the test filed under Homo sapiens is 0.49.
Take `Clc1ccccc1-c1n[nH]c(-c2ccccc2)n1`: the maximal effect (Emax) in test [1] was found to be 60%; in test [2] it was 74%. The Ratio EC50 in the test filed under Homo sapiens came out at 0.82.
As to `c1ccc(-c2n[nH]c(-c3ccccc3)n2)cc1`, the maximal effect (Emax) in test [1] is 56%; in test [2] it was 63%. In the test filed under Homo sapiens, the Ratio EC50 came out at 0.14.
